Data from article PMC6446070, “Discovery of novel isoflavone derivatives as AChE/BuChE dual-targeted inhibitors: synthesis, biological evaluation and molecular modelling” (Journal of Enzyme Inhibition and Medicinal Chemistry, 2017).

Chains of the proteins cited; added tags and fusions are not shown. Residues count along the entry.
UniProt P06276, 29-602: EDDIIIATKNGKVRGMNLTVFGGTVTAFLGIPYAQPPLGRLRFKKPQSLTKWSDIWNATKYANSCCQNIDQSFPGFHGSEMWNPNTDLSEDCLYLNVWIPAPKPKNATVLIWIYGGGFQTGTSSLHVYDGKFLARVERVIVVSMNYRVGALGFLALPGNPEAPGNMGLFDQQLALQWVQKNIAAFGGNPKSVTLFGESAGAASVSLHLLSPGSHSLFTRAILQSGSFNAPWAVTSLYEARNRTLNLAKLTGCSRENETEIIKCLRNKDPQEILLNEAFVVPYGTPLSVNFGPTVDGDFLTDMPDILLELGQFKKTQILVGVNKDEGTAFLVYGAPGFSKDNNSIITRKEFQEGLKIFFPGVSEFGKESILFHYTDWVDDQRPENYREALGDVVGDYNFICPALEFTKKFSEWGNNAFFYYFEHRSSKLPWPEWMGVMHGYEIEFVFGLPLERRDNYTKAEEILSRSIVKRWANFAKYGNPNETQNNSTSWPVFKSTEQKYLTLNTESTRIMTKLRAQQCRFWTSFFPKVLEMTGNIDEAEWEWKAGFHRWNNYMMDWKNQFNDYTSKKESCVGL

Molecular target: T1, BuChE (Homo sapiens, UniProt P06276)
T1 construct: BuChE (3.4 U/mg) was obtained from human plasma; from tissue; host or cells: human plasma
Assay: biochemical
Description: To measure in vitro AChE/BuChE activity, modified Ellman's method[27–30] was performed using a 96-well plate reader (BioTek ELx808). AChE (0.5 U/mg) was extracted from rat cortex while BuChE (3.4 U/mg) was obtained from human plasma. Each well contained 50 μl potassium phosphate buffer (KH2PO4/K2HPO4, 0.1 M, pH 8.0), 25 μl test compounds and 25 μl enzyme. […] They were pre-incubated for 60 min at 37 °C, and then 125 μl 5,5′-dithiobis-2-nitrobenzoic acid (DNTB, 3 mM in buffer) was added. […] A control experiment was performed under the same condition without any inhibitor and the blank contained buffer, water, DTNB and substrate. The described method was also performed for BuChE bioassay.

`CC(C)NP(=O)(NC(C)C)OP(=O)(NC(C)C)NC(C)C` [Iso-OMPA, tetraisopropyl pyrophosphoramide, reference compound] gave an IC50 of 5.78 µM.
